{"source": "paper PMC4823272", "about": "(Frontiers in Microbiology, 2016)", "system": "HA of the H1N1 strain (A/New Caledonia/20/99)", "assay": "AFM binding of H1 HA to lipid membranes (HA-bound area)", "parameters": "species or system influenza virus A/New Caledonia/20/99 (H1N1)", "conditions": "[HA] = 2.4–24 nM, 25°C, 1 h"}
{"molecule": "CCCCCCCCCCCCCCCC(=O)OCC(COP(=O)(O)OCCN)OC(=O)CCCCCCCCCCCCCCC", "note": "(centres unmarked) [DPPE, dipalmitoylphosphatidylethanolamine]", "values": [{"measurement": "H1 HA binding, result in words", "setting": "HA-bound area, n = 3", "value": "no significant binding"}, {"measurement": "HA-bound area (upper bound over tested HA concentrations)", "setting": "binarized images", "value": "≤ 10", "unit": "%"}]}
